Among the data in patent publication US9745283B2, “Uracil derivatives as AXL and c-MET kinase inhibitors” (priority 2011, dated 2017) are IC50 values, retold here.

The chains behind the UniProt entries cited, without tags or fusion partners. Residues count along the entry.
UniProt P30530, 26-894: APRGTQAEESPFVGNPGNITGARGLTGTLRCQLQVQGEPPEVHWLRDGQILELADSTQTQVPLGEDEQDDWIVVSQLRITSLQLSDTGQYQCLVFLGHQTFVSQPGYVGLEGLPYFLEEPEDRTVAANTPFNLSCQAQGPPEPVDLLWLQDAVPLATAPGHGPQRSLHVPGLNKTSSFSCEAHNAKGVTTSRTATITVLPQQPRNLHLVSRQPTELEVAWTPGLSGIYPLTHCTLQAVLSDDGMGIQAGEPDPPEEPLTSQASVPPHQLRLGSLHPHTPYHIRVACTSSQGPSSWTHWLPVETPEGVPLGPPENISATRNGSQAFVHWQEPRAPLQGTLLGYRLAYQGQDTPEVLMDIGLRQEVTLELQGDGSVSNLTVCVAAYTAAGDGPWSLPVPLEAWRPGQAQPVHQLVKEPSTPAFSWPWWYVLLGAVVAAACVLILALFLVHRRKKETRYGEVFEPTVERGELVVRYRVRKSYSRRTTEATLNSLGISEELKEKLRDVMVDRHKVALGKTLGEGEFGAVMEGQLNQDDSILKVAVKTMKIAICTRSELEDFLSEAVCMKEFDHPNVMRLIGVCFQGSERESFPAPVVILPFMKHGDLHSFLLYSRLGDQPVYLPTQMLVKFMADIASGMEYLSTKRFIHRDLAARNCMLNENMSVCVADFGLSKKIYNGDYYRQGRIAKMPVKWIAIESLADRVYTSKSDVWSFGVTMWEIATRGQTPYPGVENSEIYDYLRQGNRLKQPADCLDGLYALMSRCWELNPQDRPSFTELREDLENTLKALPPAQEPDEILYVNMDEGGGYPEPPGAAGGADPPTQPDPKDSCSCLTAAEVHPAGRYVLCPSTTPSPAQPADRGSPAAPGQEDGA

In this assay the target is recombinant human baculovirus-expressed AXL (Homo sapiens (Human), UniProt P30530). In words: AXL Kinase Assay (HTRF KinEASE). The format is biochemical. The conditions noted are these: average of two or more determinations. (Time-resolved FRET reads energy transfer from a long-lived donor to a nearby acceptor.)

pIC50: −log10 of the molar value.

Turning to `COc1cc2nccc(Oc3ccc(NC(=O)c4cn(CCCCO)c(=O)n(-c5ccc(F)cc5)c4=O)cc3F)c2cc1OC` [Example 55, 3-(4-Fluorophenyl)-1-(4-hydroxybutyl)-2,4-dioxo-1,2,3,4-tetrahydropyrimidine-5-carboxylic acid [4-(6,7-dimethoxyquinolin-4-yloxy)-3-fluorophenyl]-amide], the pIC50 – broadly, the IC50 on a negative log10 scale, so that one unit is a factor of ten – was more than 8.00.
In the case of `C#CCn1cc(C(=O)Nc2ccc(Oc3ccnc4cc(OC)c(OC)cc34)c(F)c2)c(=O)n(CC#C)c1=O` [Example 98, 2,4-Dioxo-1,3-di-prop-2-ynyl-1,2,3,4-tetrahydro-pyrimidine-5-carboxylic acid [4-(6,7-dimethoxy-quinolin-4-yloxy)-3-fluoro-phenyl]-amide] it was more than 8.00.
